{"source": "patent EP4772192A1", "about": "(Suzhou Pro-Heal Pharmaceuticals Technology Co., Ltd., dated 2026)", "binders": {"B1": {"name": "anti-IGF-1R antibody AB1 (antibody, V domains shown)", "VH": "QVQLQESGPGLVKPPGTLSLTCALSGYSVTGMHWGWVRQPPGKGLEWIGYISSGSTDYNPSLKSRVTISSDTSKNQLSLKLSSVTAADTAVYYCARGSVEPYTHWGQGTLVTVSS", "VL": "EIVLTQSPATLSLSPGERATLSCSASSHWHSYMHWYQQKPGQAPRLLIYDTINLMTGIPARFSGSRSGTDYTLTISSLEPEDAAVYYCQQITGYPSVAEFGQGTKLEIK"}, "B2": {"name": "anti-IGF-1R antibody AB10 (antibody, V domains shown)", "VH": "DVQLQESGPELMKPSQIVSLTCKLSGYSVTGMHWNWIRQVSESKLEWIGYISSGSTDYNPSLKSRISITSETSKNQLFLQLNIVTTEDIATYYCARGSVEPYTHWGQGTLVTVSA", "VL": "QIVLTQSPAIMSRVVGEKVTMTCSASSHWHSYMHWYQQKPGSSPSLYIYDTINLMTGVPARFSGSRSGTSYSLTIVSMEREDAATYYCQQITGYPSVAEFGAGTKLEIK"}, "B3": {"name": "anti-IGF-1R antibody AB11 (antibody, V domains shown)", "VH": "QVQLQESGGGVVQPGRSLRLSCSASGFTFSDYYMYWVRQAPGKGLEWVAYITNYGGSTYYPDTVKGRFTISRDNAKNTLFLQMDSLRPEDTGVYFCARQSNYDYDGWFAYWGQGTPVTVSS", "VL": "DIQLTQSPSSLSASVGDRVTITCKASQEVGTAVAWYQQKPGKAPKLLIYWASTRHTGVPSRFSGSGSGTDFTFTISSLQPEDIATYFCQQYSNYPLTFGQGTKVEIK"}, "B4": {"name": "anti-IGF-1R antibody AB12 (antibody, V domains shown)", "VH": "EVQLLESGGGLVQPGGSLRLSCAASGFTFSIYRMQWVRQAPGKGLEWVSGISPSGGTTWYADSVKGRFTISRDNSKNTLYLQMNSLRAEDTAVYYCARWSGGSGYAFDIWGQGTMVTVSS", "VL": "DIQMTQSPLSLSASVGDRVTITCQASRDIRNYLNWYQQKPGKAPKLLIYDASSLQTGVPSRFGGSGSGTDFSFTIGSLQPEDIATYYCQQFDSLPHTFGQGTKLEIK"}, "B5": {"name": "anti-IGF-1R antibody AB2 (antibody, V domains shown)", "VH": "EVQLLESGGGLVQPGGSLRLSCTASGFTFSSYAMNWVRQAPGKGLEWVSAISGSGGTTFYADSVKGRFTISRDNSRTTLYLQMNSLRAEDTAVYYCAKDLGWSDSYYYYYGMDVWGQGTTVTVSS", "VL": "DIQMTQFPSSLSASVGDRVTITCRASQGIRNDLGWYQQKPGKAPKRLIYAASRLHRGVPSRFSGSGSGTEFTLTISSLQPEDFATYYCLQHNSYPCSFGQGTKLEIK"}, "B6": {"name": "anti-IGF-1R antibody AB4 (antibody, V domains shown)", "VH": "EVQLVQSGAEVKKPGSSVKVSCKASGGTFSSYAISWVRQAPGQGLEWMGGIIPIFGTANYAQKFQGRVTITADKSTSTAYMELSSLRSEDTAVYYCARAPLRFLEWSTQDHYYYYYMDVWGKGTTVTVSS", "VL": "SSELTQDPAVSVALGQTVRITCQGDSLRSYYATWYQQKPGQAPILVIYGENKRPSGIPDRFSGSSSGNTASLTITGAQAEDEADYYCKSRDGSGQHLVFGGGTKLTVL"}, "B7": {"name": "anti-IGF-1R antibody AB6 (antibody, V domains shown)", "VH": "EVQLVQSGGGLVKPGGSLRLSCAASGFTFSSFAMHWVRQAPGKGLEWISVIDTRGATYYADSVKGRFTISRDNAKNSLYLQMNSLRAEDTAVYYCARLGNFYYGMDVWGQGTTVTVSS", "VL": "EIVLTQSPGTLSVSPGERATLSCRASQSIGSSLHWYQQKPGQAPRLLIKYASQSLSGIPDRFSGSGSGTDFTLTISRLEPEDFAVYYCHQSSRLPHTFGQGTKVEIK"}, "B8": {"name": "anti-IGF-1R antibody AB8 (antibody)", "chain 1": "QVQLVQSGAEVVKPGASVKLSCKASGYTFTSYWMHWVKQRPGQGLEWIGEINPSNGRTNYNQKFQGKATLTVDKSSSTAYMQLSSLTSEDSAVYYFARGRPDYYGSSKWYFDVWGQGTTVTVSS", "chain 2": "DVVMTQTPLSLPVSLGDPASISCRSSQSIVHSNVNTYLEWYLQKPGQSPRLLIYKVSNRFSGVPDRFSGSGAGTDFTLRISRVEAEDLGIYYCFQGSHVPPTFGGGTKLEIK"}, "B9": {"name": "anti-IGF-1R antibody AB9 (antibody, V domains shown)", "VH": "QVQLQESGPGLVKPSGTLSLTCAVSGGSISSSNWWSWVRQPPGKGLEWIGEIYHSGSTNYNPSLKSRVTISVDKSKNQFSLKLSSVTAADTAVYYCARWTGRTDAFDIWGQGTMVTVSS", "VL": "not shown"}}, "data": [{"biological_target": "T1, human IGF-1R (insulin-like growth factor 1 receptor), stably over-expressed on cells (human, UniProt P08069 31-1367)", "experiment": "cell-based or functional assay", "units": {"IC50 of inhibition of proliferation of 3T3 / IGF-1R cells (CCK8)": "nM"}, "values": [{"binder": "B1", "IC50 of inhibition of proliferation of 3T3 / IGF-1R cells (CCK8)": 8.25}, {"binder": "B2", "IC50 of inhibition of proliferation of 3T3 / IGF-1R cells (CCK8)": 16.6}, {"binder": "B3", "IC50 of inhibition of proliferation of 3T3 / IGF-1R cells (CCK8)": 9.11}, {"binder": "B4", "IC50 of inhibition of proliferation of 3T3 / IGF-1R cells (CCK8)": 20.4}, {"binder": "B5", "IC50 of inhibition of proliferation of 3T3 / IGF-1R cells (CCK8)": 133}, {"binder": "B6", "IC50 of inhibition of proliferation of 3T3 / IGF-1R cells (CCK8)": 89.1}, {"binder": "B7", "IC50 of inhibition of proliferation of 3T3 / IGF-1R cells (CCK8)": 220}, {"binder": "B8", "IC50 of inhibition of proliferation of 3T3 / IGF-1R cells (CCK8)": 7.6}, {"binder": "B9", "IC50 of inhibition of proliferation of 3T3 / IGF-1R cells (CCK8)": 61.6}]}, {"biological_target": "T1, human IGF-1R (insulin-like growth …)", "experiment": "FACS blocking on HEK293T / human IGF-1R cells; competitor biotinylated human IGF-1", "units": {"IC50": "nM"}, "values": [{"binder": "B1", "IC50": 1.72}, {"binder": "B2", "IC50": 5.31}, {"binder": "B3", "IC50": 3.72}, {"binder": "B4", "IC50": 2.52}, {"binder": "B5", "IC50": 4.32}, {"binder": "B6", "IC50": 1.03}, {"binder": "B7", "IC50": 6.52}, {"binder": "B8", "IC50": 0.97}, {"binder": "B9", "IC50": 4.27}]}, {"biological_target": "T1, human IGF-1R (insulin-like growth …)", "experiment": "flow cytometry on HEK293T cells stably over-expressing human IGF-1R; table head calls the EC50 equivalent to KD", "units": {"EC50": "nM"}, "values": [{"binder": "B1", "EC50": 0.97}, {"binder": "B2", "EC50": 3.18}, {"binder": "B3", "EC50": 1.62}, {"binder": "B4", "EC50": 1.21}, {"binder": "B5", "EC50": 2.52}, {"binder": "B6", "EC50": 0.57}, {"binder": "B7", "EC50": 2.29}, {"binder": "B8", "EC50": 0.21}, {"binder": "B9", "EC50": 1.76}]}]}
